Results taken from patent publication US6897208B2, “Benzimidazoles” (Aventis Pharmaceuticals Inc., priority 2001, dated 2005).

Amino acid sequences for entries named in this document (tags omitted). Residues count along the entry.
UniProt P35968, 786-1356 limits assumed: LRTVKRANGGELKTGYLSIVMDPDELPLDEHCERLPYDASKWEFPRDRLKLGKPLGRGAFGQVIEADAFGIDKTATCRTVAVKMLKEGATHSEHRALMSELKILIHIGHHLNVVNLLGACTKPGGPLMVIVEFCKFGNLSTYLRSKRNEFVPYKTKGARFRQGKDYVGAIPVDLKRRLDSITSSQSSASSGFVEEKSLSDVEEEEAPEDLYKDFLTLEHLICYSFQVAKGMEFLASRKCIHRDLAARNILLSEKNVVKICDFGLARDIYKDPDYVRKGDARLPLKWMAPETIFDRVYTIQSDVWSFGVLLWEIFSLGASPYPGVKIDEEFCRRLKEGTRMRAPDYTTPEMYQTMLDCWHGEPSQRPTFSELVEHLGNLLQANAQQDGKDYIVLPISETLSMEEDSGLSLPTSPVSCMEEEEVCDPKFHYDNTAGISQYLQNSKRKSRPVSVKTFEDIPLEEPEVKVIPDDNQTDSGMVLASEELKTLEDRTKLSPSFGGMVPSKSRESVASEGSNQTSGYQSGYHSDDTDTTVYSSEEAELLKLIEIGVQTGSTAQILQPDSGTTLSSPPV

Molecular target: human KDR enzyme (Homo sapiens, UniProt P35968)
Assay: Phosphorylation of PLCγ substrate by the enzyme KDR in vitro (flashplate technique)
Details: read-out: Activity (IC50 class); Table 6; degrees of activity in 'the above tests'
Experimental: 1. Inhibitory Effects of Compounds on KDR
The inhibitory effect of the compounds is determined in a test of phosphorylation of a substrate by the enzyme KDR in vitro by the flasplate technique (96-well plate, NEN).
The cytoplasmic domain of human KDR enzyme is cloned in the form of a GST fusion into the baculovirus expression vector pFastBac. The protein is expressed in the SF21 cells and purified to about 60% homogeneity.
The kinase activity of KDR is measured in 20 mM MOPS, 10 mM MgCl2, 10 mM MnCl2, 1 mM DTT, 2.5 mM EGTA, 10 mM β glycerophosphate, pH 7.2 in the presence of 10 mM MgCl2, 100 μM Na3VO4, 1 mM NaF. 10 μl of the compound are added to 70 μl of kinase buffer containing 100 ng of KDR enzyme at 4° C. The reaction is initiated by adding 20 μl of solution containing 2 μg of substrate (fragment SH2-SH3 of PLCγ expressed in the form of a GST fusion protein), 2 μCi γ33P[ATP] and 2 μM cold ATP. After incubating for 1 hour at 37° C., the reaction is quenched by adding 1 volume (100 μl) of 200 mM EDTA. The incubation buffer is removed and the wells are washed three times with 300 μl of PBS. The radioactivity is measured in each well using a Top Count NXT instrument (Packard).
Background noise is determined by measuring the radioactivity in wells in quadruplet containing radioactive ATP and the substrate alone.
An activity control is measured in wells in quadruplet containing all the reagents (γ33P-[ATP], KDR and the substrate PLCγ) and in the absence of compound.
The inhibition of the KDR activity with the compound of the invention is expressed as a percentage of inhibition of the control activity determined in the absence of compound.
The compound SU5614 (Calbiochem) (1 μM) is included in each plate as inhibition control.
The IC50 values for the compounds are calculated by plotting the dose-response curves. The IC50 corresponds to the concentration of compound that induces a 50% inhibition of the kinase activity.

For `O=C(Oc1cc(-c2nc3ccccc3[nH]2)[nH]n1)c1ccc(C(F)(F)F)cc1`, the IC50 was > 3 µM.

Work on `CC(C)=CCC/C(C)=C/COc1cc(-c2nc3ccccc3[nH]2)[nH]n1` yielded an IC50 of 0.3 to 3 µM.

For `Brc1cccc(COc2cc(-c3nc4ccccc4[nH]3)[nH]n2)c1`, the IC50 was 0.3 to 3 µM.
